Binding of CDR-mutated scFvs to a peptide of the spike HR2 region

From the AlphaSeq antibody data of Engelhart et al. 2022 (doi:10.1038/s41597-022-01779-4), copy in the FLAb collection.

Binding partner: SARS-CoV-2 spike HR2 peptide, sequence PDVDLGDISGINAS.

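The parent was found by panning a naive human phage display library on the peptide. Library AAYL50 holds single substitutions and randomly drawn double and triple substitutions in the CDRs. AlphaSeq pools MATa yeast showing the antibodies with MATalpha yeast showing the peptide. Mating (16 h, 30 °C) was followed by selection of diploids and sequencing of their barcodes. Each replicate has its own calibration line, from reference interactions of the BCL2 family. There are three technical replicates.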

The variants keep the heavy chain, the linker and the frameworks of Ab-14 (scFv order VH, a (GGGGS)3 linker, VL).
VH: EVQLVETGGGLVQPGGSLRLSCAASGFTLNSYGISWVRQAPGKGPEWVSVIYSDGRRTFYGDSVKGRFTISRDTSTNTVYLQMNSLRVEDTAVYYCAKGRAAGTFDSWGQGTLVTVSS
VL: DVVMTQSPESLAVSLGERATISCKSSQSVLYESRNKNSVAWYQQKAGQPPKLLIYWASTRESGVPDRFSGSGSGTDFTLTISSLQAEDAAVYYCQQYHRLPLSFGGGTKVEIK

Positions count from residue 1 of the parent VL; Q27Y puts Y in place of Q.
Numbers give log10(Kd / nM), so 0 is 1 nM and 3 is 1 µM. Smaller is tighter.
"nd" marks a missing value. The strain was present, yet no cells mated with the target were sequenced in that replicate, which points to weak or no binding.
In this assay the parent's reference entry averaged 0.65; its copy inside this library read 1.68.
Nonspecific signal, from three strains lacking the peptide, appeared in 18% of pairings of library AAYL50, centred on 4.19 (5% of these signals below 2.99); values are not corrected for it. For each scFv, signals with the empty controls are counted beside the result, with their mean in brackets.

changes,"log10 Kd, replicates",control signals
Q27Y+E32L+H98Y,3.66 3.47 2.96,0/9
K24I+E32A+W56D,1.03 1.19 1.13,1/9 (4.15)
Q27S+R34F+A57F,4.59 nd nd,1/9 (3.15)
K24P+L30I+L100I,4.55 3.33 4.88,6/9 (4.38)
L30R+Y31M+L100M,0.87 1.02 1.02,0/9
V29E+K36D+R60I,4.88 nd 5.61,1/9 (3.73)
V29Y+R34E+L102F,1.53 1.44 1.60,8/9 (4.57)
Q27N+S38W+H98M,1.49 1.59 1.73,2/9 (3.89)
T59R+Y97H+L102K,3.03 nd nd,2/9 (4.28)
S33V+H98R+L100P,nd nd nd,1/9 (3.62)
S28L+L30K+S62C,1.75 1.73 1.86,1/9 (2.81)
V29R+W56C+Q96G,1.41 1.57 1.68,2/9 (5.02)
L30I+V39Q+Q96S,2.67 2.21 2.44,6/9 (4.30)
K36F+S38T,2.68 2.83 4.12,3/9 (4.51)
S33N,nd 2.79 3.44,1/9 (3.69)
L30K+E32R+W56A,3.02 3.61 4.29,3/9 (3.52)
L30M+S33M+Y97N,1.88 1.70 1.82,1/9 (4.16)
S25P+Y97D,nd nd nd,0/9
V29F+S58I+Q95L,nd nd nd,1/9 (4.40)
L100S+P101Y,nd nd 6.49,3/9 (4.58)
S25G+A57V+P101W,nd nd nd,0/9
A57V+S58Q+H98D,nd nd nd,0/9
L30T+Y31N+A40S,2.25 2.66 2.52,3/9 (4.25)
S26V+K36S+V39H,6.23 nd nd,4/9 (3.99)
S26C,1.41 1.55 1.77,1/9 (4.50)
K24G+S28W+L30S,1.48 nd 1.87,1/9 (3.27)
K36D+V39N+R99P,nd nd nd,2/9 (3.95)
Q27C+A40P+R60A,nd nd nd,0/9
S38A+S62F+Q95C,4.74 nd 2.52,0/9
S25T+V29H+Q96L,nd nd nd,1/9 (4.33)
K24Q+N35D+H98V,0.78 0.89 0.92,3/9 (4.52)
S58M+R60H+H98E,nd nd nd,1/9 (2.71)
E32R+N35G+N37S,1.88 1.75 2.22,1/9 (3.05)

For reference, 3 entries of the list once more:

changes,"log10 Kd, replicates",control signals
L30R+Y31M+L100M,0.87 1.02 1.02,0/9
K24I+E32A+W56D,1.03 1.19 1.13,1/9 (4.15)
S38A+S62F+Q95C,4.74 nd 2.52,0/9